Reference: patent publication US11723897B2, “Fatty acids as anti-inflammatory agents” (University of Pittsburgh—Of the Commonwealth System of …, priority 2009, dated 2023)

System: EFAD formation in RAW264.7 cells
Assay: Inhibitor study: EFAD formation in RAW264.7 cells activated with Kdo2 and IFNγ
Type: cell-based, murine
Settings: RAW264.7 + Kdo2 + IFNγ, 20 h; ↓ decrease, ↑ increase, NE (not defined in patent)

CCCCC/C=C\C/C=C\C/C=C\C/C=C\CCCCOP(=O)(F)OC (stereo not drawn)
↓: Effect of inhibitor on EFAD-1 formation | Effect of inhibitor on EFAD-2 formation | Effect of inhibitor on EFAD-3 formation | Effect of inhibitor on EFAD-4 formation | Effect of inhibitor on EFAD-5 formation | Effect of inhibitor on EFAD-6 formation
